These results are taken from patent US20240052079A1 (OREGON HEALTH & SCIENCE UNIVERSITY, priority 2021, published 2024).

Data set [1] in a line: Hydrolytic degradation kinetics of neat monomers by 1H NMR. The data set is classed as physicochemical. The settings on record: for Percent remaining monomer: 50 mM monomer, aqueous pH=1, 37° C. The protocol:
Neat monomers were subject to the hydrolytic degradation kinetics assay. An aqueous solution (pH=1) was prepared using HPLC grade water and adjusted using 1.0 M HCI. A 50 mM solution of each monomer (n=3) was prepared using 1.0 mL of the acidic aqueous solution. A capillary tube was filled with a 50 mM solution of tetramethylammonium bromide dissolved in D2O and flame sealed. The capillary tube was placed at the bottom on the NMR tube to allow the “locking on” of the instrument and to act as an internal standard. ^1H NMR spectra were obtained using a water suppression by excitation sculpting experiment. After the initial reading, the NMR tubes were flame sealed and incubated at 37° C. During the first week and after 12, 19, and 30 days, the samples were removed from incubation to obtain water suppressed ^1H NMR spectra. To determine the amount of monomer degradation, spectra were first aligned using the ITSD singlet peak and then an integration region unique to a monomer vinyl proton and an integration region unique to a degradation product (methacrylic or acrylic acid) vinyl proton were used to calculate the ratio of monomer to degradation product. An integration region where a vinyl peak is found in both TMAAEA and acrylic acid was used to normalize the integration values. Additional integration regions on either side of the vinyl region were used to determine the average amount of noise in each spectra. Degradation product values with a signal to noise ratio of less than 10 were considered to show no measurable amount of degradation.

The conditions of data set [2]: values not given; source of logP not stated.

Turning to `C=CC(=O)NN1CCCN(NC(=O)C=C)CC1` [BAADA, N,N′-bis(acrylamido) 1,4-diazepane], the Percent remaining monomer in data set [1] (day 5) and in data set [1] (day 7) was 99.9 ± 0.1% in each case.

As to “N,N-Diethyl-1,3-bis(acrylamido)propane [DEBAAP, reference compound]”, the “logP, ranking among tested monomers” value in data set [2] is “the highest among all groups”. Further, the Percent remaining monomer in data set [1] (day 0), in data set [1] (day 1), in data set [1] (day 2), in data set [1] (day 3), in data set [1] (day 4) and in data set [1] (day 5) was 100.0 ± 0.0% each time. In addition, the Percent remaining monomer came to 99.9 ± 0.2% in data set [1] (day 6); 100.0 ± 0.0% in data set [1] (day 7); 100.0 ± 0.0% in data set [1] (day 12); 100.0 ± 0.0% in data set [1] (day 19); 100.0 ± 0.0% in data set [1] (day 30). Besides, the final degradation percentage in data set [1] (over one month, acidic aqueous conditions (pH=1)) amounted to 0%.
